{"source": "patent US4701406A", "about": "“Assay for the detection of epigenetic toxic (non-genotoxic) substances” (priority 1984, dated 1987)", "tested_on": "cytoskeletal elements (microtubules) of quiescent 3T3 cells", "details": "taxol in combination with CDNB, chromium, and nickel; FIGS. 2e-2g", "data": [{"smiles": "CC(=O)O[C@H]1C(=O)[C@@]2(C)[C@H]([C@H](OC(=O)c3ccccc3)[C@]3(O)C[C@H](OC(=O)[C@H](O)[C@@H](NC(=O)c4ccccc4)c4ccccc4)C(C)=C1C3(C)C)[C@]1(OC(C)=O)CO[C@@H]1C[C@@H]2O", "note": "[taxol]", "values": [{"measurement": "protection from cytoskeletal disruption", "value": "prevented cytoskeletal disruption"}]}]}
